From patent publication US11078197B2, “5-membered and bicyclic heterocyclic amides as inhibitors of rock” (BRISTOL-MYERS SQUIBB COMPANY, priority 2017, dated 2021)

Sequences of proteins named here, by UniProt entry; tags and fusion partners are left off. A change or cut given only in a name is not applied to a line headed by its entry.
UniProt O75116: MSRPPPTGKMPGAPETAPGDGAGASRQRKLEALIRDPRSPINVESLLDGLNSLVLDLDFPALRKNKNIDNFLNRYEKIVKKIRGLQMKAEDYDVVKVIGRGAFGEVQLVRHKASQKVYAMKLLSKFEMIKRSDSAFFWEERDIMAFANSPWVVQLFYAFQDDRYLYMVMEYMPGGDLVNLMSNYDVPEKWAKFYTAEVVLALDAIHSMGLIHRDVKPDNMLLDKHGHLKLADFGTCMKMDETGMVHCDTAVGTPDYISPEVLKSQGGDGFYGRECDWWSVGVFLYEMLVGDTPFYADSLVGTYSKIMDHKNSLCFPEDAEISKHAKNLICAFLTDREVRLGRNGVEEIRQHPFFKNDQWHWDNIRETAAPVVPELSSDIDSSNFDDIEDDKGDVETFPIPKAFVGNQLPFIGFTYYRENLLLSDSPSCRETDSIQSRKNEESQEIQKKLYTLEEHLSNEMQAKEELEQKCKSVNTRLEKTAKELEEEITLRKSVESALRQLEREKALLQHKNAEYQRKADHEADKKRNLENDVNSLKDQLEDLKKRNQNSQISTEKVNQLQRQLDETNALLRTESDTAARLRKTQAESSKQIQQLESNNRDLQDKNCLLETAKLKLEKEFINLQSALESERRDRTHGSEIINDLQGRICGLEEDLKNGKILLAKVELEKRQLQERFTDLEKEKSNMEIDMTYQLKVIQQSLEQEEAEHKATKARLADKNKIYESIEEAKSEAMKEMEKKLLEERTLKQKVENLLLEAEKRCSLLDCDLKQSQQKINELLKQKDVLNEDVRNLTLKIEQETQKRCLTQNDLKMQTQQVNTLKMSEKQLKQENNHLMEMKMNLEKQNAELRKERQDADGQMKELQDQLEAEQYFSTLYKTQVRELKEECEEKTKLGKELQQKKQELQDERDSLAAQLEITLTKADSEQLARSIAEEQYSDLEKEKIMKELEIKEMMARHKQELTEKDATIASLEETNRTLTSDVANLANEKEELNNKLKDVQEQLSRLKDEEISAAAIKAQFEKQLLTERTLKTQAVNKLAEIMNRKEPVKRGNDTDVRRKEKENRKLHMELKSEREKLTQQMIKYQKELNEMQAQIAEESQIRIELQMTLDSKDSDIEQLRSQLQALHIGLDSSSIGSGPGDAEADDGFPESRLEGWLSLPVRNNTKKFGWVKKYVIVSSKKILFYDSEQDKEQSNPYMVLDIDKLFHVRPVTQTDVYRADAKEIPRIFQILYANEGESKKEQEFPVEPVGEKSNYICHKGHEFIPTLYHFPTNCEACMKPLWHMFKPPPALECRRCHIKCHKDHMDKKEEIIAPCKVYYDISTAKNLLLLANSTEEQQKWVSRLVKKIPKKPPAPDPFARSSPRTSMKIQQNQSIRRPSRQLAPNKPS

Target: ROCK2 (Homo sapiens (Human), UniProt O75116)
Assay: ROCK2 assay (peptide phosphorylation, LABCHIP 3000 Reader)
Format: biochemical
Details: read-out: ROCK2 Activity IC50; 5 μM ATP, 1.5 μM peptide substrate, dose-response
Description: After incubation, the reaction was terminated by the addition of EDTA and the phosphorylated and non-phosphorylated peptides separated using a LABCHIP®3000 Reader (Caliper Life Sciences). […] Compounds were tested in dose-response format, and the inhibition of kinase activity was calculated at each concentration of compound. […] Representative Examples were tested in the ROCK2 assay described above and found having ROCK2 inhibitory activity.

1-methyl-6-(((2S,4s,6S)-6-(5-methyl-1-(4-(trifluoromethyl)phenyl)-1H-pyrazole-4-carboxamido)spiro[3.3]heptan-2-yl)oxy)-1H-pyrazolo[3,4-b]pyridine-5-carboxamide
IC50: 5.2 nM
